From patent publication US9664696B1, “Compounds for determining the presence of hydrogen sulfide and methods of use” (University of Oregon, priority 2013, dated 2017) come the findings set out here.

A short description of series [1]: Photoactivation experiments of azide-containing fluorophores. Particulars: 5 μM, PIPES buffer pH 7.4, 37° C., fluorescence excitation.
Series [2] in a line: Colorimetric selectivity studies, H2S versus amino acids and RSONS.
The mark [3] stands for this setting: 30 equivalents of H2S then added, 45 min.

For 2,6-dansyl azide, the “photostability under continuous exposure” value in series [1] was “probe photoactivation”.

Consider hydrosulfide naphthalimide, for which, in series [1], the “photostability under continuous exposure” value is “probe photoactivation”.

As for `O=[N+]([O-])c1ccc(Cl)c2nonc12`, the “absorbance peak at 534 nm after initial incubation” value in series [2] (3 μM compound, 10 equivalents of H2S, glycine, serine, tyrosine, lysine, glutathione, N-acetyl-L-cysteine) is given as “only the H2S samples showed the characteristic absorbance peak at 534 nm”. For the same compound, in series [2] (setting [3]), the “H2S response after incubation of GSH and N-acetylcysteine” value is “somewhat eroded”; the “colorimetric response to H2S after incubation with biological nucleophiles” value is on record as “robust colorimetric response to H2S”. Moreover, the visual color response entry in series [2] (50 equivalents of different amino acids or RSONS) was “only H2S generates the characteristic color”.
